These are literature values, as cited in article PMC8287861, “QPX7728, An Ultra-Broad-Spectrum B-Lactamase Inhibitor for Intravenous and Oral Therapy: Overview of Biochemical and Microbiological Characteristics” (Frontiers in Microbiology, 2021).

The data set deals with NDM-1. More on the design: method as in Tsivkovski et al. (2020). The settings on record: ref Tsivkovski et al. (2020).

In the case of `O=C(O)c1c(F)ccc2c1OB(O)[C@@H]1C[C@H]21` [QPX7728], the Kd (in general, the free concentration of one partner at which half of the binding sites on the other are occupied at equilibrium, for simple one-to-one binding) (NDM-1 (text b23 calls it Ki)) is 32 ± 14 nM. The Ki (as a rule, a dissociation constant, usually derived from enzyme kinetics or from competition with a known ligand) (NDM-1, competitive inhibitor) is about 32 nM.
